# Ab-14 light chain CDR variants: yeast mating affinities

The target is the same throughout: PDVDLGDISGINAS, from the HR2 region of SARS-CoV-2 spike.

Each scFv is VH, the linker GGGGSGGGGSGGGGS, VL, as in the parent Ab-14, and differs from it in the CDRs of the light chain only.
VH: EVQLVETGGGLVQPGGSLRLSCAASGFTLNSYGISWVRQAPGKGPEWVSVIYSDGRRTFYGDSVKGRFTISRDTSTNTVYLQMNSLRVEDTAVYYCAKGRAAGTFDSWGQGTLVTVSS
VL: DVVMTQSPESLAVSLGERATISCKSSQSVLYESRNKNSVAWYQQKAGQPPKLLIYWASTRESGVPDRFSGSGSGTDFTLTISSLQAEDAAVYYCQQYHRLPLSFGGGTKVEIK

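Phage display of a naive human antibody library on the peptide gave the parent. The variants were designed computationally from a first round of random CDR variants and then made and measured. Several design methods are mixed in this list. The assay is AlphaSeq: two haploid yeast populations carry antibody and antigen on their surface. Binding brings cells together so that they mate, and sequencing counts the barcode pairs among the diploids. Scores were corrected for input abundance and mapped to Kd with protein pairs of known affinity run in the same pool. Mating was done six times.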

Variants are written as CDR1, CDR2 and CDR3 of the light chain (limits as in the source). Parent: KSSQSVLYESRNKNSVA, WASTRES, QQYHRLPLS. Values are log10 of the apparent Kd in nM; lower means stronger binding. Averages over replicates are reported, and they cover detected replicates only. An entry "nd" has no value in the source: the pair was not observed among the diploids in any replicate. This suggests poor binding but is not conclusive. Three control strains display no target. For all light chain designs, 4% of the pairings with them gave a signal, with a median of 2.64 and one signal in twenty below 1.59, so weak values seen in few replicates may be background.

| log10 Kd (nM), mean | detected | CDR-L1 | CDR-L2 | CDR-L3 |
|---|---|---|---|---|
| 0.77 | 3 of 6 | MISQLYNMGQFAINSVA | QASQRNA | QQYDRLPLM |
| 0.71 | 6 of 6 | KSSKSVLYESRNCNSVA | WGSTRES | QQYHRLPLS |
| 3.72 | 2 of 6 | KSNSSVLYESENKNSIA | SAFTRES | QQYHRLPYS |
| 1.49 | 6 of 6 | TIGASLRYGSRNRSNVA | EVSQRLN | QQYDRLPLA |
| 1.19 | 6 of 6 | TLHANIEYGGGMWSSIA | DNVQRAD | QQYQRLPLG |
| 0.24 | 6 of 6 | KLDMNELHQSQNKNCVA | DSAQKCS | QQYSRLPLS |
| 0.26 | 6 of 6 | QLSMITGHVSMSKNNVA | EMETRMN | QQYDRLPLS |
| -0.17 | 6 of 6 | KLMQSVPYESRNKNSVA | NASTRES | QQYHRLPLS |
| 2.29 | 2 of 6 | KNSASVLYESRNHNSVA | WASTRES | QQYHRLPLS |
| 0.07 | 6 of 6 | KLSQSVLYESRNKNSVA | NASQRMS | QQYHRLPLS |
| 1.20 | 5 of 6 | KSSQSVLDESRNKNSVA | WASTRES | QQYHWLPLS |
| -0.15 | 6 of 6 | KISQSVLYESRNKNSVA | EASTRLS | QQYHRLPLS |
| 4.84 | 1 of 6 | KSSLQVLYESRNKNSVA | SASTRES | QQYHRLPCS |
| nd | 0 of 6 | KSSQSVLYESRNKNSVA | WASTRES | QAYHREPLS |
| 0.78 | 6 of 6 | KLPFSCLYESRNKNSVA | MASTRCS | QQYHRLPLS |
| 0.28 | 6 of 6 | KLSQITGHLSTAKNNVA | EMVTREN | QQYNRLPLS |
| 0.12 | 6 of 6 | TLGQSALMESRNKNNVA | QMSTREK | QQYDRLPLS |
| 0.57 | 6 of 6 | KFSQSVLYESLNKNNIA | HASTRES | QQYHRLPLS |
| -0.05 | 6 of 6 | KISQSVGYESRNKNSIA | NASQREQ | QQYHRLPLS |
| 1.75 | 5 of 6 | HISQSVGMTSRNKNSVA | ENSTREM | QQYDRLPLS |
| 0.20 | 6 of 6 | KLSQSMEYESRNKNSVA | NASQRLS | QQYHRLPLS |
| nd | 0 of 6 | KSAQSVLYESFNKNSVA | AASTRES | QQHCRLPLS |
| 0.36 | 6 of 6 | KSFQSMLYEGENKNSVA | KASTRES | QQYHRLPLS |
| -0.07 | 6 of 6 | SLGGVTSYEMQNKNSVA | QMTTRES | QQYHRLPLS |
| 3.52 | 1 of 6 | HLYHPWQSGQDSMQNVA | NDSTLMT | QHYNRLPLS |
| -0.22 | 6 of 6 | KLDQSQLYESRNKNSVA | QASTRES | QQYHRLPLS |
| 0.60 | 6 of 6 | KQSQSVLMESRNVNSVA | DASTRES | QQYVRLPLS |
| 2.83 | 2 of 6 | KSSQDVLYEMRNVNSVA | WASTRES | QQYHRLPLS |
| -0.21 | 6 of 6 | KLSQSWLYESRMKNAVA | NASQRES | QQYHRLPLS |
| 0.15 | 6 of 6 | KLSQQNPYESRMMNSVA | NASQRES | QQYHRLPLS |
| 0.33 | 6 of 6 | KLYDMAAVTMNNIRNVA | DNDNRED | QQYHRLPLS |
| -0.30 | 6 of 6 | KLMQSWLYESRNKNSVA | NASQRMS | QQYHRLPLS |
| 0.02 | 6 of 6 | KAQAGDGYESRNKNSVA | EGSKRES | QQYHRLPLS |
| 0.26 | 6 of 6 | KFSQSVLYESRNSNAVA | EASTRES | QDYHRLPLS |
| -0.09 | 6 of 6 | QIDSFYQHGTDAKKAMA | DGSVRTQ | QQYSRLPLS |
| 1.81 | 6 of 6 | KVSQSMDYESRNVMSVA | NASTRLK | QQYHRLPLS |
| nd | 0 of 6 | KLSMLYRYESENKNSIA | ELVTRMS | QQYHRLPLS |
| 1.23 | 6 of 6 | TISQSVNMTSHGKNSVA | QAEMRES | QQYDRLPLS |
| 1.91 | 2 of 6 | KQSQSVLYESRNRNSVA | WASTRTS | QQYHRLPLS |
| 1.25 | 6 of 6 | KSLQSWLYESRNKNSVA | HASTRED | QQYHRLPLS |
| -0.08 | 6 of 6 | KVMQSVLYESRNKNSVA | NASTREL | QQYHRLPLS |
| -0.05 | 6 of 6 | KFEQSDLYESRNKNSVA | NASQRES | QQYHRLPLS |
| 1.60 | 6 of 6 | KSSQSVLYESRNKNSVA | RATTRES | QQYHRLPLS |
| -0.24 | 6 of 6 | YLSQSVQYESRNKNSVA | SASTREY | QQYHRLPLA |
| nd | 0 of 6 | KSSQSVLNHSRNKNSVA | WASTRES | QQKHRLPLS |
| 0.73 | 6 of 6 | TISQSFLMENQFKNSVA | QATTRES | QCYDRLPLS |
| 0.68 | 6 of 6 | HSSPSVEYESRNKNSVA | NASLRES | QQYHRLPLS |

A selection of 5 entries from above:

CDR-L1	CDR-L2	CDR-L3	log10 Kd (nM), mean	detected
KFSQSVLYESLNKNNIA	HASTRES	QQYHRLPLS	0.57	6 of 6
YLSQSVQYESRNKNSVA	SASTREY	QQYHRLPLA	-0.24	6 of 6
HISQSVGMTSRNKNSVA	ENSTREM	QQYDRLPLS	1.75	5 of 6
KLMQSWLYESRNKNSVA	NASQRMS	QQYHRLPLS	-0.30	6 of 6
KFSQSVLYESRNSNAVA	EASTRES	QDYHRLPLS	0.26	6 of 6

Values of this round are not directly comparable with the first-round values of the same sequences. The authors averaged sequences with at least three values out of six and counted those with two or fewer as poor binders. Of ten entries with the parent sequence, four were seen in most replicates (averages 0.34 to 2.37), three in one and three in none, so single entries are noisy.

From the AlphaSeq antibody data of Li et al. 2023 (doi:10.1038/s41467-023-39022-2), copy in the FLAb collection.